Source: PubChem BioAssay AID485297 (National Center for Advancing Translational Sciences (NCATS), 2010)
Only a part is listed here, and it is no random draw. Some tests of the compounds listed are not included; inactive here does not mean inactive elsewhere. Results filed as inconclusive are left out. Calls of active or inactive are those of the source. Calls follow the shape of the dose curve; as a rule, active = well fitted activation curve with a large enough effect; inconclusive = small, poorly fitted or top-dose-only effect; inactive = no such curve, though single readings can be large or run the other way.

assay: qHTS Assay for Rab9 Promoter Activators; conditions: Huh7 Rab9 promoter-luciferase reporter, luminescence, 24 h; at 9.22 µM (top of the series) unless noted; also: % of control where 0% means no effect; nearly all actives have a fitted effect of over 60% in size

SMILES	activation, negative = inhibition
O=C(OC1CN2CCC1CC2)C(CO)(c1ccccc1)c1ccccc1 (centres undefined)	inactive: -11.4%
CC(C)Oc1ccc(C(=O)NCC2(N(C)C)CCCCC2)cc1	inactive: 8.06%
CN(C)c1cccc(C(=O)NCC2(N(C)C)CCCCC2)c1	inactive: 6.43%
COc1ccc(Br)c(C(=O)NCC2(N3CCCCC3)CCCCC2)c1	inactive: -5.79%
COc1cc(C(=O)NCC2(N(C)C)CCCCC2)c([N+](=O)[O-])cc1OC	inactive: 4.49%
CN(C)C1(CNC(=O)c2ccc(Br)cc2)CCCCC1	inactive: -10.9%
O=C(NCC1(N2CCCCC2)CCCCC1)c1cccc(Cl)c1	inactive: -4.48%
COc1ccc(Cl)cc1C(=O)NCC1(N(C)C)CCCCC1	inactive: -0.0604%
COc1cccc(C(=O)NCC2(N3CCCCC3)CCCCC2)c1	inactive: -5.82%
CN(C)C1CCCC1OC(=O)C(O)(c1ccccc1)c1ccccc1 (centres undefined)	inactive: -1.74%
CN(C)c1ccc(C(=O)NCC2(N(C)C)CCCCC2)cc1	inactive: -3.27%
Cc1ccccc1C(=O)NCC1(N2CCCCC2)CCCCC1	inactive: 23.8%
COc1ccc(C(=O)NCC2(N(C)C)CCCCC2)cc1	inactive: 12.4%
O=C(NCC1(N2CCCCC2)CCCCC1)c1cccc(Br)c1	inactive: -3.74%
Cc1cc(C(=O)NCC2(N3CCCCC3)CCCCC2)ccc1[N+](=O)[O-]	inactive: -3.58%
CCN1CCCC(OC(=O)C2(O)c3ccccc3C=Cc3ccccc32)C1 (centres undefined)	inactive: -1.58%
O=C(NCC1(N2CCCCC2)CCCCC1)c1cc(F)c(F)cc1Cl	inactive: 0.551%
C=CCN1CCN(CCOC(=O)C(O)(c2ccccc2)c2ccccc2)CC1	inactive: 1%
CN1[C@@H]2CC[C@H]1CC(OC(=O)C(O)(c1ccccc1)c1ccccc1)C2 (some centres undefined)	inactive: 3.26%
O=C(NCC1(N2CCCCC2)CCCCC1)c1cc([N+](=O)[O-])ccc1Cl	inactive: -7%
Cc1ccc(C(=O)NCC2(N3CCCCC3)CCCCC2)cc1	inactive: -0.202%
COc1cc(SC)ccc1C(=O)NCC1(N(C)C)CCCCC1	inactive: -4.25% [at 1.84 µM]
CCN(CC)CC(C)C(C)OC(=O)C(O)(c1ccccc1)c1ccccc1 (centres undefined)	inactive: -0.0354%
CC(C)N1C(=O)CC2(CCN(CCOC(=O)C(O)(c3ccccc3)c3ccccc3)CC2)C1=O	inactive: 2.56%
